Tested on: SW480
Experiment: drug sensitivity score (DSS, integrated dose-response area); higher = more sensitive (stronger viability reduction); extreme values may be limits of the assay
In short: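 Viability of induced SW480 cells carrying control or SND1-targeting shRNA was read by CellTiter-Glo 72 h after plating at 1000 cells per well onto 384-well plates holding 525 small-molecule inhibitors at five concentrations. Induction used 0.1 µg/mL doxycycline for 7 days. Each drug sensitivity score integrates the area under a fitted non-linear dose–response model.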

NCc1ccc(OCCCc2sc(-c3ccc4c(c3)/C(=N/Nc3nc5ccccc5s3)CCC4)nc2C(=O)O)cc1 [WEHI-539]
drug sensitivity score (shRNA: SND1 shRNA1 (SND1 silenced)): 4.6 DSS | drug sensitivity score (shRNA: SND1 shRNA2 (SND1 silenced)): 3.3 DSS | drug sensitivity score (shRNA: control shRNA (non-targeting)): 4.1 DSS

— the supplement of paper PMC9265050, “Inhibition of RNA Binding in SND1 Increases the Levels of miR-1-3p and Sensitizes Cancer Cells to Navitoclax” (Cancers, 2022)
